Patent publication US9422240B2, “Partially saturated nitrogen-containing heterocyclic compound” (TAISHO PHARMACEUTICAL CO., LTD, priority 2012, dated 2016)

Amino acid sequences for entries named in this document (tags omitted).
UniProt Q9GZT9, whole entry: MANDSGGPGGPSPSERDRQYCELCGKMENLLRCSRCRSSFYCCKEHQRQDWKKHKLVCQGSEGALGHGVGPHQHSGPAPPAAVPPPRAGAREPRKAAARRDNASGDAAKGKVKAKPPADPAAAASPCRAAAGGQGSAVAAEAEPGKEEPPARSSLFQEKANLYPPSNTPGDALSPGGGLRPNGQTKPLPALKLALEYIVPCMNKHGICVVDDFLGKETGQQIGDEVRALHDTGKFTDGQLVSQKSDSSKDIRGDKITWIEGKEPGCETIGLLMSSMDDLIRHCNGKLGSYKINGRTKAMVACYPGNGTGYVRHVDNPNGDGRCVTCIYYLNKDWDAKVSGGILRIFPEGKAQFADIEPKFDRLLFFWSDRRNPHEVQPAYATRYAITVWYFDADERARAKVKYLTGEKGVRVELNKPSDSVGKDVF

Legend:
human PHD2 [1] = biological target: T1, human PHD2 (Homo sapiens (Human), UniProt Q9GZT9); experiment: Test 1: human PHD2 inhibitory activity, [14C]-2-oxoglutarate to [14C]-succinic acid radiometric assay with HIF-1α peptide; assay type: biochemical; conditions: test compound's concentration 1 μM; Test 1, [14C]-2-oxoglutarate radiometric assay
human PHD2 [2] = biological target: T1, human PHD2; experiment: Test 2: human PHD2 inhibitory activity, fluorescence polarization assay of HIF-1α peptide proline hydroxylation; assay type: biochemical

`O=C(O)CNC(=O)C1=C(O)CCN(Cc2ccc(Oc3ccc(F)cc3)cc2)C1=O` was tested, and the “Percent inhibition (% at 1 μM)” value (human PHD2 [1]) was 104%, the IC50 (human PHD2 [2]; human PHD2, fluorescence polarization assay, 20-min incubation at 30° C.) was 59 nM and the “Percent inhibition (% at 1 μM)” value (human PHD2 [2]; test compound's concentration 1 μM, Test 2, fluorescence polarization assay) was 98%.
